Where two headings read alike, the source gives them in different places.
Key:
[1] = system: HER2 positive cell HCC1954; assay: Cytotoxicity of α-ADCs in HER2 positive cell HCC1954 (CellTiter-Glo); assay type: cell-based, Human
Description: (§1) Cell viability is tested using CellTiter-Glo® Luminescent Kit (Promega, Cat.# G7573) read by a Biotek Cytation3 Imaging reader.
(§2) Study design was shown as in Table 21 and Table 22. […] Cell vitality formula: Viability = (RLU (X) - RLU (Puro))/(RLU (Control) - RLU (Puro)) ^∗ 100%. A logistic model (4-parameter) will be used for data processing, IC50 calculation and curve fitting by Prism 6 software.

[2] = system: HER2 negative cell MDA-MB-468; assay: Cytotoxicity of α-ADCs in HER2 negative cell MDA-MB-468 (CellTiter-Glo); assay type: cell-based
Description: as §1, §2

[3] = system: HCC1954 human breast cancer xenograft; assay: In vivo anti-tumor efficacy, HCC1954 human breast cancer xenograft model; parameters: species or system female BALB/c nude mice
[4] = system: NCI-N87 human gastric cancer xenograft; assay: In vivo anti-tumor efficacy, NCI-N87 human gastric cancer xenograft model; parameters: species or system female BALB/c nude mice
Text: HCC1954 human breast cancer xenograft model (HCC1954 model) and NCI-N87 human gastric cancer xenograft model (NCI-N87 model) in female BALB/c nude mice are provided by ATCC. Cynomolgus monkeys are provided by GuangZhou XiangGuan, Ltd..
Objective: The objective of this study was to evaluate the in vivo anti-tumor efficacy of α-ADCs after single dose IV administration in the subcutaneous HCC1954 human breast cancer xenograft model (HCC1954 model) and NCI-N87 human gastric cancer xenograft model (NCI-N87 model) in female BALB/c nude mice.

[5] = cited from earlier work; for Organ Weight: Body Weight / Organ Weight: Salivary Gland / Organ Weight: Thymus: Main Phase
[6] = Main Phase (n=3 / gender), Female, 10 mg/kg (HNSTD)
[7] = Main Phase (n=3 / gender), Male, 10 mg/kg (HNSTD)
[8] = Recovery phase (n=2 / gender), Female, 10 mg/kg (HNSTD)
[9] = Recovery phase (n=2 / gender), Male, 10 mg/kg (HNSTD)

## Kadcyla
[1]; HCC1954, 72 h
  effect on proliferation of HER2-positive cells compared with comparator: slightly stronger effect than α-ADCs
[1]; HER2 positive HCC1954, 72 h, CellTiter-Glo
  IC50: 0.0947 nM
[2]; HER2 negative MDA-MB-468, 72 h, CellTiter-Glo
  IC50: 10.6 nM
[2]; MDA-MB-468, 72 h
  inhibitory effect in HER2-negative cells: off-target cytotoxicity at high concentration
[3]; 2.5 mg/kg single dose IV
  T/C: 6.47%
  mean tumor size: 144 mm^3
[3]; 5 mg/kg single dose IV
  T/C: 1.57%
  mean tumor size: 35 mm^3
[4]; 5 mg/kg single dose IV
  T/C: 41.61%
  TGI: 67.93%
  mean tumor size: 579 mm^3
[4]; 15 mg/kg single dose IV
  T/C: 4.66%
  TGI: 110.87%
  mean tumor size: 65 mm^3
[5]; [6]
  Kidney: Infiltrate, Mononuclear Cell: ⅓
  Liver: Increased Sinusoidal Leukocytes: ⅓
  Lung: Infiltrate, Mononuclear Cell, Interstitium: ⅓
  Sciatic Nerve: Axonal Degeneration: ⅓
  Spleen: Mitoses/Arrested Metaphase, Reticuloendothelial Cells: ⅓
[5]; [7]
  Kidney: Infiltrate, Mononuclear Cell: ⅔
  Kidney: Mitoses/Arrested Metaphase, Tubular Epithelial Cells: ⅓
  Lung: Infiltrate, Mononuclear Cell, Interstitium: ⅓
  Sciatic Nerve: Axonal Degeneration: ⅔
  Thymus: Lymphoid Depletion: ⅔
[5]; Female, 10 mg/kg (HNSTD)
  Organ Weight: Body Weight: -12.5%
  Organ Weight: Salivary Gland: -1.9%
  Organ Weight: Thymus: -63.7%
[5]; Male, 10 mg/kg (HNSTD)
  Organ Weight: Body Weight: -7.1%
  Organ Weight: Salivary Gland: -24.6%
  Organ Weight: Thymus: -31.2%
[5]; [8]
  Sciatic Nerve: Axonal Degeneration: ½
  Spinal Cord: Axonal Degeneration, Dorsal Funiculus: ½
[5]; [9]
  Sciatic Nerve: Axonal Degeneration: ½
  Spinal Cord: Axonal Degeneration, Dorsal Funiculus: ½
[5]; comparison value for Kadcyla
  toxicity dose: 10 mg/kg

Reference: patent US20230338568A1, “NOVEL ISOMERIC COMPOUNDS COMPRISING A RING-OPENED THIOSUCCINIMIDE GROUP, AN OLIGOPEPTIDE FRAGMENT AND A CHIRAL MOIETY” (priority 2020, published 2023)
